The list shows a part of the results, in another mix than the full data. Some results for these compounds are left out of this collection, so the calls shown say nothing about other tests. The source made the active and inactive calls. Rule as the data show it: active = inhibition above about 60%; inconclusive = no clear call, values can overlap the other calls; inactive = below that.
Experiment: MLPCN primary screen, SNCA 5' untranslated region (AID 1813);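 also: H4 neuroglioblastoma cells stably carrying SNCA 5'UTR luciferase fusion; 0% = DMSO wells and 100% = positive control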
Details: alpha-synuclein 5'UTR reporter, inhibitor activity; stronger effect = higher value; tested at 7.5 µM

Row | Structure (SMILES) | inhibition
1 | COc1ccc(Cl)cc1C(=O)NCC1(N(C)C)CCCCC1 | inactive: -10.1%
2 | COc1cccc(C(=O)NCC2(N3CCCCC3)CCCCC2)c1 | inactive: -4.77%
3 | O=C(NCC1(N2CCCCC2)CCCCC1)c1cccc(Cl)c1 | inactive: -30.7%
4 | CN(C)C1(CNC(=O)c2ccc(Br)cc2)CCCCC1 | inactive: -7.79%
5 | COc1cc(C(=O)NCC2(N(C)C)CCCCC2)c([N+](=O)[O-])cc1OC | inactive: 1.96%
6 | COc1ccc(Br)c(C(=O)NCC2(N3CCCCC3)CCCCC2)c1 | inactive: 1.47%
7 | CC(C)Oc1ccc(C(=O)NCC2(N(C)C)CCCCC2)cc1 | inactive: 0.971%
8 | CN(C)c1cccc(C(=O)NCC2(N(C)C)CCCCC2)c1 | inactive: -27.4%
9 | O=C(OC1CN2CCC1CC2)C(CO)(c1ccccc1)c1ccccc1 (centres undefined) | inactive: -25.4%
10 | COc1cc(SC)ccc1C(=O)NCC1(N(C)C)CCCCC1 | inactive: -1.62%
11 | CCN(CC)CC(C)C(C)OC(=O)C(O)(c1ccccc1)c1ccccc1 (centres undefined) | inactive: 15.5%
12 | CC(C)N1C(=O)CC2(CCN(CCOC(=O)C(O)(c3ccccc3)c3ccccc3)CC2)C1=O | inactive: 8.55%
13 | Cc1ccc(C(=O)NCC2(N3CCCCC3)CCCCC2)cc1 | inactive: -7.83%
14 | O=C(NCC1(N2CCCCC2)CCCCC1)c1cc([N+](=O)[O-])ccc1Cl | inactive: -10.7%
15 | CN1[C@@H]2CC[C@H]1CC(OC(=O)C(O)(c1ccccc1)c1ccccc1)C2 (some centres undefined) | inactive: 7.72%
16 | O=C(NCC1(N2CCCCC2)CCCCC1)c1cc(F)c(F)cc1Cl | inactive: 11.8%
17 | C=CCN1CCN(CCOC(=O)C(O)(c2ccccc2)c2ccccc2)CC1 | inactive: -25.5%
18 | COc1ccc(C(=O)NCC2(N(C)C)CCCCC2)cc1 | inactive: 1.51%
19 | O=C(NCC1(N2CCCCC2)CCCCC1)c1cccc(Br)c1 | inactive: -12.7%
20 | Cc1cc(C(=O)NCC2(N3CCCCC3)CCCCC2)ccc1[N+](=O)[O-] | inactive: -27%
21 | CCN1CCCC(OC(=O)C2(O)c3ccccc3C=Cc3ccccc32)C1 (centres undefined) | inactive: 5.69%
22 | CN(C)C1CCCC1OC(=O)C(O)(c1ccccc1)c1ccccc1 (centres undefined) | inactive: 0.783%
23 | CN(C)c1ccc(C(=O)NCC2(N(C)C)CCCCC2)cc1 | inactive: 2.32%
24 | Cc1ccccc1C(=O)NCC1(N2CCCCC2)CCCCC1 | inactive: 3.21%
